Measurements from patent publication US20180353627A1, “RADIOLABELED DISINTEGRINS AS BRACHYTHERAPY AGENTS” (UNIVERSITY OF SOUTHERN CALIFORNIA, priority 2015, published 2018).

The chains behind the UniProt entries cited, without tags or fusion partners. Residues count along the entry.
UniProt P05106, 27-788: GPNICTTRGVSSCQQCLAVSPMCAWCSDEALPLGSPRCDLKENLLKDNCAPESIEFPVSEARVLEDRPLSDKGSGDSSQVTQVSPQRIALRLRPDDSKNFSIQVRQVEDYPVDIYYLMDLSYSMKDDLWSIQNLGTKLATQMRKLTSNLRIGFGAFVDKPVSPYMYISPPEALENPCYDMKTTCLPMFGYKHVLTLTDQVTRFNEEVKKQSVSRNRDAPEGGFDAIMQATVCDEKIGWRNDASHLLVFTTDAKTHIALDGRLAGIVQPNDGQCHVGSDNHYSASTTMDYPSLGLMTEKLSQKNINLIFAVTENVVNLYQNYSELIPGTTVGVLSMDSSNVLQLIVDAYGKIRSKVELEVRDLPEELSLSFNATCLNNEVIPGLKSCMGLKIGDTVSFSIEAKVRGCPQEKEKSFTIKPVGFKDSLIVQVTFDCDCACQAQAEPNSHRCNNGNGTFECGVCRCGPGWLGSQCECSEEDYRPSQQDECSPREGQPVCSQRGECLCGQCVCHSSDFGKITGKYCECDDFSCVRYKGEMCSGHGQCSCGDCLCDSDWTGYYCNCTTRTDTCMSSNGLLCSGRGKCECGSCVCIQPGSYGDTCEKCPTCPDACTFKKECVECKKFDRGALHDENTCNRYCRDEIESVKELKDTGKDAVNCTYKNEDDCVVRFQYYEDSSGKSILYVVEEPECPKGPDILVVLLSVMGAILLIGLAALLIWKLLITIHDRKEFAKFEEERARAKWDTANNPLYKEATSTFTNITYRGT
UniProt P06756, 891-1048 partner limits assumed: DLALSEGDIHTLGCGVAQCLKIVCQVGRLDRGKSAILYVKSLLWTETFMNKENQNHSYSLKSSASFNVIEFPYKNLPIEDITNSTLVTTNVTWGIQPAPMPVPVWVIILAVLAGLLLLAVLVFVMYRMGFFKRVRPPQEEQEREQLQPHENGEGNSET
UniProt P06756, 31-889 limits assumed: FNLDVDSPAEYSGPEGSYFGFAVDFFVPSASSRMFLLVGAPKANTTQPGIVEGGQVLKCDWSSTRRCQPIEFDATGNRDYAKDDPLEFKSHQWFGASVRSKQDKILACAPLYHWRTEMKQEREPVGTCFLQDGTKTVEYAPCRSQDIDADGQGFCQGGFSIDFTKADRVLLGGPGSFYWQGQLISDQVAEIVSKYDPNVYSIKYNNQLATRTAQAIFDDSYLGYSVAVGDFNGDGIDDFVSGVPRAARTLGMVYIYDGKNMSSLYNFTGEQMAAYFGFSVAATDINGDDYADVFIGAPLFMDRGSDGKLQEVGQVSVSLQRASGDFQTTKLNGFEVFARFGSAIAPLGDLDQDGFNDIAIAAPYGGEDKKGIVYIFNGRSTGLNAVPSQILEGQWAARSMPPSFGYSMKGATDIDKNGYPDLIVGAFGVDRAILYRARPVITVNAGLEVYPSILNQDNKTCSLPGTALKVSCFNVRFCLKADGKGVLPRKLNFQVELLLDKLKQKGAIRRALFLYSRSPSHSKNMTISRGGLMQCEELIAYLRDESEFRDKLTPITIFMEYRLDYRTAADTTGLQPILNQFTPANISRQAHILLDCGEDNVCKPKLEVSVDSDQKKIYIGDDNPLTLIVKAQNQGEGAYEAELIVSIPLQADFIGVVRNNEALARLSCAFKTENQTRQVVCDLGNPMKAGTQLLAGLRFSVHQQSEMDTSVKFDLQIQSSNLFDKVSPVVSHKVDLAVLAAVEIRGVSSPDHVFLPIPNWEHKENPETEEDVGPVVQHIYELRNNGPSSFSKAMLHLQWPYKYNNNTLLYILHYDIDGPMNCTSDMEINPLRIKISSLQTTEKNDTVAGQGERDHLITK

Molecular target: αvβ3 (Homo sapiens, UniProt P05106+P06756)
Experiment: Fluorescence polarization binding of FITC-labeled disintegrins to soluble integrin αvβ3
Settings: native VCN, read-out: binding affinity to αvβ3
Description: The specific activity of iodinated VCN is determined by separation of the material by SDS-PAGE, and counting bands of VCN cut from the gel. […] Further, ^131I-VCN retained essentially 100% radioiodine during dialysis against phosphate buffered saline, pH 7.4, for 15 days. […] Binding kinetics were calculated from the fluorescence anisotropy data generated by steady state binding of FITC-labeled disintegrins to either purified (αvβ3, αvβ5) or recombinant (α5β1) functional human integrins. The dissociation constants for interactions of either CN or VCN with soluble integrins were determined by Scatchard analysis using a non-linear curve fit.

## vicrostatin [VCN]
  Kd: ~7 nM
